Measurements published in patent US20110319427A1, “USE OF 5AHQ AND BORTEZOMIB FOR THE TREATMENT OF HEMATOLOGICAL DISEASES” (priority 2009, published 2011).

Which “RF 5AHQ (Resistance Factor)” value (THP1/WT) does the source give for `Nc1ccc(O)c2ncccc12` [5AHQ, 5-amino-8-hydroxyquinoline] here?
The value was 1.

What about the “RF 5AHQ (Resistance Factor)” value (THP1/BTZ50; THP1/BTZ50 (+)) of the same compound?
Its value is 1.6.

And the “RF 5AHQ (Resistance Factor)” value (THP1/BTZ50; THP1/BTZ50 (−))?
Its value is 1.8.

What about the “RF 5AHQ (Resistance Factor)” value (THP1/BTZ500; THP1/BTZ500 (+)) of the same compound?
The value was 1.4.

And the “RF 5AHQ (Resistance Factor)” value (THP1/BTZ500; THP1/BTZ500 (−))?
The value was 1.8.

Where two headings read alike, the source gives them in different places.
